For one assay, the target named is PI3Kδ (Homo sapiens (Human), UniProt O00329). Description: PI3Kδ enzymatic inhibitory activity IC50 assay. Particulars: read-out: PI3Kδ IC50; luminescence readout, 25 μM ATP, 50 μM PIP2, 2 hours at room temperature. The procedure:
(§1) 1. Buffer preparation: 50 mM HEPES, pH 7.5, 3 mM MgCl2, 1 mM EGTA, 100 mM NaCl, 0.03% CHAPS.
(§2) 2. The compound was formulated in 100% DMSO in a concentration gradient, and deposited to a 384-well plate with a final DMSO concentration of 1%.
(§3) 3. PI3Kα, PI3Kδ, PI3Kβ and PI3Kγ enzymes (purchased from EMD Millipore) were diluted to the optimal concentration with the following buffer: 50 mM HEPES, pH 7.5, 3 mM MgCl2, 1 mM EGTA, 100 mM NaCl, 0.03% CHAPS, 2 mM DTT, transferred to a 384-well plate and incubated with the compound for a certain time.
(§4) 4. The substrate was diluted to an optimal concentration with the following buffer: 50 mM HEPES, pH 7.5, 3 mM MgCl2, 1 mM EGTA, 100 mM NaCl, 0.03% CHAPS, 2 mM DTT, 50 μM PIP2, 25 μM ATP and added to the 384-well plate to initiate the reaction. PI3Kα, PI3Kβ and PI3Kγ were allowed to react for 1 h at room temperature, and PI3Kδ reacted for 2 hours at room temperature. Another 10 μL ADP-Glo Detection Reagent also needed to be added for PI3Kβ and PI3Kγ, and then equilibrated at room temperature for 30 minutes.
(§5) 5. Luminescence was read by using Flexstation, and the inhibition rate was calculated as the average value of two tests.

Chains of the proteins cited; added tags and fusions are not shown. Lines headed by an entry give the natural chain unless they say otherwise; changes in a name come on top.
UniProt O00329, whole entry: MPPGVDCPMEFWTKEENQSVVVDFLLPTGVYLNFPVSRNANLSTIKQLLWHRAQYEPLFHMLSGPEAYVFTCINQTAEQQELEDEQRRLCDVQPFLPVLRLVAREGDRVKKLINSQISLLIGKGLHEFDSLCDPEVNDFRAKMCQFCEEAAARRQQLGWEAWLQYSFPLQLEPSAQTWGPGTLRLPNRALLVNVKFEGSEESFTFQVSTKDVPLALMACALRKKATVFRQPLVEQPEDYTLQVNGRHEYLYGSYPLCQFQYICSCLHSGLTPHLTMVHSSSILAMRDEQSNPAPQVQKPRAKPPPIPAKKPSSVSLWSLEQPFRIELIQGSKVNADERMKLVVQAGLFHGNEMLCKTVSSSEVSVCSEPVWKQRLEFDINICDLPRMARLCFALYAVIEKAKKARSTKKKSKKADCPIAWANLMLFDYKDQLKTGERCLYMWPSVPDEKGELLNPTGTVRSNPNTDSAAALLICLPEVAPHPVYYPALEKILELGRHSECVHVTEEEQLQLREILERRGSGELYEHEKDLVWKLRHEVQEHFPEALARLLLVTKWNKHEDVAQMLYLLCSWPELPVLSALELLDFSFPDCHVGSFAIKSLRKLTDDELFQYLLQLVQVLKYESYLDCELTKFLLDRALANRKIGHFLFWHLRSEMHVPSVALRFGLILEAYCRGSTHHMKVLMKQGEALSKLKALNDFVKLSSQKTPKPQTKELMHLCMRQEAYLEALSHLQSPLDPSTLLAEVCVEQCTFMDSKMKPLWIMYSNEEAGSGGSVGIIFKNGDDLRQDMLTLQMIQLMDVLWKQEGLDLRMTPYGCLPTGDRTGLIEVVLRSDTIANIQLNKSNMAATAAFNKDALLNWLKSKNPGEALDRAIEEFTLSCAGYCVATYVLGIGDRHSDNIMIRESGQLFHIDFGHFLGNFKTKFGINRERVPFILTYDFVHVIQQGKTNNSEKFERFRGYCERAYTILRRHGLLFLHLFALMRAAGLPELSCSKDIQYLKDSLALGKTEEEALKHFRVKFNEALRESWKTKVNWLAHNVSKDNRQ
UniProt P42336, whole entry: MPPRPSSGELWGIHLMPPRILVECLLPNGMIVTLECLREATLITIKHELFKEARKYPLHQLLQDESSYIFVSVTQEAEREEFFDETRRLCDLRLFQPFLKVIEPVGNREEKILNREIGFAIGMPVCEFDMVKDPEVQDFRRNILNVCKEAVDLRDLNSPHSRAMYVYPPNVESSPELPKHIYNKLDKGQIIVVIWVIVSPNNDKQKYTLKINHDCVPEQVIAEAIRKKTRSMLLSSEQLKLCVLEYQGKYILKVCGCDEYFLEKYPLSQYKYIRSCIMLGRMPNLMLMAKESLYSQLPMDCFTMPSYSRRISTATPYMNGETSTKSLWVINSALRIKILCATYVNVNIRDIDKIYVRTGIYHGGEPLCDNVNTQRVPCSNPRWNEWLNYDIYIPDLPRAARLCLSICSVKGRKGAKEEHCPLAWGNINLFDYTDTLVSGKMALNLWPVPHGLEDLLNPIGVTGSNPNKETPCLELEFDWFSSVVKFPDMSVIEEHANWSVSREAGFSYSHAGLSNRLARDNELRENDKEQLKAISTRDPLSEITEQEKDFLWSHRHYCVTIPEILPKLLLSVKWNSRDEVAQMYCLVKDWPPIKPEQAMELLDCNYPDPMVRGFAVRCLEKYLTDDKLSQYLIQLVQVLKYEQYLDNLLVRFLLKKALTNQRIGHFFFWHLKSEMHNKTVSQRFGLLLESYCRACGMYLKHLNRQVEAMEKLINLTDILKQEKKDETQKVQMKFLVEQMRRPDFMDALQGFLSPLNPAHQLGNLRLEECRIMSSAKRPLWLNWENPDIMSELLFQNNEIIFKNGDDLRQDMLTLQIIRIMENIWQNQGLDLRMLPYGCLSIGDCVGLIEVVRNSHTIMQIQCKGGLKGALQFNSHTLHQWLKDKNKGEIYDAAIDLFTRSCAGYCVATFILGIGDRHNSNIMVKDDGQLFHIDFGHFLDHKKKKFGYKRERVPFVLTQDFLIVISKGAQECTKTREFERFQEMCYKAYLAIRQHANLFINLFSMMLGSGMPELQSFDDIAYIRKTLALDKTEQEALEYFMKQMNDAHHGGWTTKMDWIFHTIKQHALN
UniProt P27986, whole entry partner: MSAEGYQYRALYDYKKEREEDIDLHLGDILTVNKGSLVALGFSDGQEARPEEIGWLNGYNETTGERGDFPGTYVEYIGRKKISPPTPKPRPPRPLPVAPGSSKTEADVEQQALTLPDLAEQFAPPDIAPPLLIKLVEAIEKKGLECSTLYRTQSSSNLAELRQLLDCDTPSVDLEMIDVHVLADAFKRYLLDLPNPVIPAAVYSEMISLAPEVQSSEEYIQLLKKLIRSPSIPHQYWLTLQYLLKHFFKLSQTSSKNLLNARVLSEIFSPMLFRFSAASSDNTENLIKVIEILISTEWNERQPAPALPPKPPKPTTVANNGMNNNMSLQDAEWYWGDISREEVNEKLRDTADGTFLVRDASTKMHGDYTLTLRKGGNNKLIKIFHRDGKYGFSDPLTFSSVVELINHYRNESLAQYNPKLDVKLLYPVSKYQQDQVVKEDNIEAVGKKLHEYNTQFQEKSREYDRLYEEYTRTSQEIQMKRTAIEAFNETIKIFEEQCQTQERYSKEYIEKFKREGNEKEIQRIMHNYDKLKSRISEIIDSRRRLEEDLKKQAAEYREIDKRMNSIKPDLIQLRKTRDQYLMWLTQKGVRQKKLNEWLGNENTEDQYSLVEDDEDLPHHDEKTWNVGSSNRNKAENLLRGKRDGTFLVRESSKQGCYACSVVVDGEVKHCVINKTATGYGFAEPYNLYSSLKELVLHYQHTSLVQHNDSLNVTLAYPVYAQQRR

In a further assay the target is PI3Kα (Homo sapiens (Human), UniProt P42336). Description: PI3Kα enzymatic inhibitory activity IC50 assay. Particulars: selectivity ratio. The protocol: as §1, §2, §3, §4, §5

Structures are written as SMILES.

Consider 2 compounds from patent US9656996B2, “Fused heterocyclic compound, preparation method therefor, pharmaceutical composition, and uses thereof” (SHANGHAI YINGLI PHARMACEUTICAL CO., LTD., priority 2013, dated 2017).

Turning to `COc1ncc(-c2nc(N3CCOCC3)nc3c(CN4CCC(N5CCCC5=O)CC4)cc(F)cc23)cc1NS(C)(=O)=O`, the IC50 on PI3Kδ was 28 nM. Further, the “α/δ (ratio of IC50 values against PI3Kα to PI3Kδ)” value at PI3Kα is 28.

As for `CC(C)(O)C1CCN(Cc2cnc3c(-c4cccc5[nH]ccc45)nc(N4CCOCC4)cn23)CC1`, the IC50 on PI3Kδ was 241 nM. Besides, the “α/δ (ratio of IC50 values against PI3Kα to PI3Kδ)” value on PI3Kα is >41.

What is called IC50 is the concentration that gives 50% inhibition.
